The source of these data is patent US20250222051A1, “MU[…] ADJUVANT TREATMENT OF TUMOR, AND PREPARATION METHOD AND APPLICATION THEREOF” (Changde Jizhi Biological Technology Co., Ltd, priority 2024, published 2025).

SMILES strings stand for the structures.

The data set concerns mouse H22 hepatoma cells. To be noted: body weight of H22 tumor-bearing mice at end; oxaliplatin 15 mg/kg tail vein once, products 0.45 g/kg intragastric.

Consider `O=C1[O][Pt]2([NH][C@@H]3CCCC[C@H]3[NH]2)[O]C1=O` [Oxaliplatin, oxaliplatin], for which the “Weight Final” value stood at 20.44 ± 1.23.
